pEC50: −log10 of the molar value.
biological target: human RXFP1 (Homo sapiens, UniProt Q9HBX9); test: RXFP1 Hu cAMP (Test A); assay type: cell-based; details: not given

By UniProt entry, the sequences of proteins in these tests, tags left out.
UniProt Q9HBX9, whole entry: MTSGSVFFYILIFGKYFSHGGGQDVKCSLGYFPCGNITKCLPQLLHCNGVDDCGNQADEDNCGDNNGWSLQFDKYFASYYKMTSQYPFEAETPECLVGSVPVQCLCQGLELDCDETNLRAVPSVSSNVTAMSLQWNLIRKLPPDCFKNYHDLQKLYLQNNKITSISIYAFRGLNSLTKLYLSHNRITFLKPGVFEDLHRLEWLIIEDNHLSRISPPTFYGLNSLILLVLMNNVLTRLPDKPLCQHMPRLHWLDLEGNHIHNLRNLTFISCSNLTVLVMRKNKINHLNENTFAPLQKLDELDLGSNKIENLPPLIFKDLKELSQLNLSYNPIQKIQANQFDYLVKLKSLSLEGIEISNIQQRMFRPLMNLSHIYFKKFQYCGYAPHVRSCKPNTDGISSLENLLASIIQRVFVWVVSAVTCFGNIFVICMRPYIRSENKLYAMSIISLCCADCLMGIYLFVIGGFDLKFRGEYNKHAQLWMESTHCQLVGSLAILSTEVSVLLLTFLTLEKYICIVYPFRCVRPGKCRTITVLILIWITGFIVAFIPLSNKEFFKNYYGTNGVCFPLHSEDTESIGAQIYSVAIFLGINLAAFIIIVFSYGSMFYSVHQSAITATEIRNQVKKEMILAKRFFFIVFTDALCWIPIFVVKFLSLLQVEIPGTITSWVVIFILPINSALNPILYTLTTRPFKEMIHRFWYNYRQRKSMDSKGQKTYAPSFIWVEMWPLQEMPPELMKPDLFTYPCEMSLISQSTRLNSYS

SMILES	Test A Sinf [%]
COc1cc(F)c(O[C@H]2CC[C@@](C)(C(=O)O)CC2)cc1C(=O)N[C@H]1CCCCCC[C@H]1C(=O)NCC1(C)CCC1 (relative stereo)	87
COc1cc(F)c(-c2cnc(CCC(=O)O)nc2)cc1C(=O)N[C@@H]1[C@H]2CC[C@H](C2)[C@@H]1C(=O)Nc1cccc(S(=O)(=O)C(F)(F)F)c1	101
COc1cc(F)c(O[C@H]2CC[C@@](C)(C(=O)O)CC2)cc1C(=O)Nc1ccsc1C(=O)NCC1(C)CCC1	95
COc1cc(C#N)c(O[C@H]2CC[C@@](C)(C(=O)O)CC2)cc1C(=O)N[C@@H]1[C@H]2CC[C@H](C2)[C@@H]1C(=O)NCC(C)(C)F	113
COc1cc(F)c(O[C@H]2CC[C@@](C)(C(=O)O)CC2)cc1C(=O)N[C@@H]1CCC[C@@H]1C(=O)NCC(C)(C)C(F)(F)F	99
COc1cc(F)c(O[C@H]2CC[C@@](C)(C(=O)O)CC2)cc1C(=O)Nc1ccc(Cl)cc1C(=O)NCC1(C)CCC1	146

same assay, conditions: read-out: Test A EC50

SMILES	pEC50
COc1cc(F)c(O[C@H]2CC[C@@](C)(C(=O)O)CC2)cc1C(=O)N[C@H]1CCCCCC[C@H]1C(=O)NCC1(C)CCC1 (relative stereo)	< 5.54
COc1cc(F)c(-c2cnc(CCC(=O)O)nc2)cc1C(=O)N[C@@H]1[C@H]2CC[C@H](C2)[C@@H]1C(=O)Nc1cccc(S(=O)(=O)C(F)(F)F)c1	6.42
COc1cc(F)c(O[C@H]2CC[C@@](C)(C(=O)O)CC2)cc1C(=O)Nc1c(C)nsc1C(=O)NCC1(C)CCC1	< 5.03
COc1cc(F)c(O[C@H]2CC[C@@](C)(C(=O)O)CC2)cc1C(=O)Nc1ccsc1C(=O)NCC1(C)CCC1	< 5.68
COc1cc(C#N)c(O[C@H]2CC[C@@](C)(C(=O)O)CC2)cc1C(=O)N[C@@H]1[C@H]2CC[C@H](C2)[C@@H]1C(=O)NCC(C)(C)F	6.62
COc1cc(F)c(O[C@H]2CC[C@@](C)(C(=O)O)CC2)cc1C(=O)N[C@@H]1CCC[C@@H]1C(=O)NCC(C)(C)C(F)(F)F	6.40
COc1cc(F)c(O[C@H]2CC[C@@](C)(C(=O)O)CC2)cc1C(=O)Nc1ccc(Cl)cc1C(=O)NCC1(C)CCC1	6.89

system: not listed separately; test: Human Plasma Protein Binding (Test B); details: fraction unbound (fu)

SMILES	Test B Human Plasma Protein Binding (% free)
COc1cc(F)c(O[C@H]2CC[C@@](C)(C(=O)O)CC2)cc1C(=O)N[C@H]1CCCCCC[C@H]1C(=O)NCC1(C)CCC1 (relative stereo)	1.7
COc1cc(F)c(-c2cnc(CCC(=O)O)nc2)cc1C(=O)N[C@@H]1[C@H]2CC[C@H](C2)[C@@H]1C(=O)Nc1cccc(S(=O)(=O)C(F)(F)F)c1	4.6
COc1cc(F)c(O[C@H]2CC[C@@](C)(C(=O)O)CC2)cc1C(=O)Nc1c(C)nsc1C(=O)NCC1(C)CCC1	4.3
COc1cc(F)c(O[C@H]2CC[C@@](C)(C(=O)O)CC2)cc1C(=O)Nc1ccsc1C(=O)NCC1(C)CCC1	<0.30
COc1cc(C#N)c(O[C@H]2CC[C@@](C)(C(=O)O)CC2)cc1C(=O)N[C@@H]1[C@H]2CC[C@H](C2)[C@@H]1C(=O)NCC(C)(C)F	20
COc1cc(F)c(O[C@H]2CC[C@@](C)(C(=O)O)CC2)cc1C(=O)Nc1ccc(Cl)cc1C(=O)NCC1(C)CCC1	<0.34

system: not listed separately; test: Human Liver Microsomal Stability (Test C); assay type: in vitro ADME; details: human liver microsomes
Protocol: Human Liver Microsomal Stability (Test C)
The assay was conducted according to the Human Liver Microsome Stability Assay described in pages 170-174 of Wernevik, J. et al., “A Fully Integrated Assay Panel for Early Drug Metabolism and Pharmacokinetics Profiling”, Assay and Drug Development Technologies, 2020, 18(4), 157-179. Data are reported in Table 36 as CLint (μl/min/mg protein). Where the assay was run multiple times for the same compound, the arithmetic mean is reported.

SMILES	Test C Human Liver Microsomal Stability Clint [µL/min/mg]
COc1cc(F)c(O[C@H]2CC[C@@](C)(C(=O)O)CC2)cc1C(=O)N[C@H]1CCCCCC[C@H]1C(=O)NCC1(C)CCC1 (relative stereo)	90
COc1cc(F)c(-c2cnc(CCC(=O)O)nc2)cc1C(=O)N[C@@H]1[C@H]2CC[C@H](C2)[C@@H]1C(=O)Nc1cccc(S(=O)(=O)C(F)(F)F)c1	32
COc1cc(F)c(O[C@H]2CC[C@@](C)(C(=O)O)CC2)cc1C(=O)Nc1c(C)nsc1C(=O)NCC1(C)CCC1	18
COc1cc(F)c(O[C@H]2CC[C@@](C)(C(=O)O)CC2)cc1C(=O)Nc1ccsc1C(=O)NCC1(C)CCC1	11
COc1cc(C#N)c(O[C@H]2CC[C@@](C)(C(=O)O)CC2)cc1C(=O)N[C@@H]1[C@H]2CC[C@H](C2)[C@@H]1C(=O)NCC(C)(C)F	5
COc1cc(F)c(O[C@H]2CC[C@@](C)(C(=O)O)CC2)cc1C(=O)N[C@@H]1CCC[C@@H]1C(=O)NCC(C)(C)C(F)(F)F	<3
COc1cc(F)c(O[C@H]2CC[C@@](C)(C(=O)O)CC2)cc1C(=O)Nc1ccc(Cl)cc1C(=O)NCC1(C)CCC1	5.6

system: not listed separately; test: Human Hepatocyte Stability (Test D); assay type: in vitro ADME; details: human hepatocytes; geometric mean if run multiple times

SMILES	Test D Human Hepatocyte Stability Clint [μL/min/10^6 cells]
COc1cc(C#N)c(O[C@H]2CC[C@@](C)(C(=O)O)CC2)cc1C(=O)N[C@@H]1[C@H]2CC[C@H](C2)[C@@H]1C(=O)NCC(C)(C)F	<1

system: not listed separately; test: Rat Hepatocyte Stability (Test E); assay type: in vitro ADME; details: rat hepatocytes; geometric mean if run multiple times
Protocol: Rat Hepatocyte Stability (Test E)
The assay was conducted according to the Rat Hepatocyte Stability Assay described in pages 170-174 of Wernevik, J. et al., “A Fully Integrated Assay Panel for Early Drug Metabolism and Pharmacokinetics Profiling”, Assay and Drug Development Technologies, 2020, 18(4), 157-179. Data are reported in Table 36 as mean Clint(μl/min/10^6 cells). Where the assay was run multiple times for the same compound, the geometric mean is reported.

SMILES	Test E Rat Hepatocyte Stability Clint [μL/min/10^6 cells]
COc1cc(F)c(O[C@H]2CC[C@@](C)(C(=O)O)CC2)cc1C(=O)N[C@H]1CCCCCC[C@H]1C(=O)NCC1(C)CCC1 (relative stereo)	56
COc1cc(F)c(-c2cnc(CCC(=O)O)nc2)cc1C(=O)N[C@@H]1[C@H]2CC[C@H](C2)[C@@H]1C(=O)Nc1cccc(S(=O)(=O)C(F)(F)F)c1	17
COc1cc(F)c(O[C@H]2CC[C@@](C)(C(=O)O)CC2)cc1C(=O)Nc1c(C)nsc1C(=O)NCC1(C)CCC1	17
COc1cc(F)c(O[C@H]2CC[C@@](C)(C(=O)O)CC2)cc1C(=O)Nc1ccsc1C(=O)NCC1(C)CCC1	70
COc1cc(C#N)c(O[C@H]2CC[C@@](C)(C(=O)O)CC2)cc1C(=O)N[C@@H]1[C@H]2CC[C@H](C2)[C@@H]1C(=O)NCC(C)(C)F	13
COc1cc(F)c(O[C@H]2CC[C@@](C)(C(=O)O)CC2)cc1C(=O)N[C@@H]1CCC[C@@H]1C(=O)NCC(C)(C)C(F)(F)F	9
COc1cc(F)c(O[C@H]2CC[C@@](C)(C(=O)O)CC2)cc1C(=O)Nc1ccc(Cl)cc1C(=O)NCC1(C)CCC1	37

system: not listed separately; test: Solubility (Test F); details: arithmetic mean if run multiple times

SMILES	Test F Solubility [µM]
COc1cc(F)c(O[C@H]2CC[C@@](C)(C(=O)O)CC2)cc1C(=O)N[C@H]1CCCCCC[C@H]1C(=O)NCC1(C)CCC1 (relative stereo)	570
COc1cc(F)c(-c2cnc(CCC(=O)O)nc2)cc1C(=O)N[C@@H]1[C@H]2CC[C@H](C2)[C@@H]1C(=O)Nc1cccc(S(=O)(=O)C(F)(F)F)c1	>1000
COc1cc(F)c(O[C@H]2CC[C@@](C)(C(=O)O)CC2)cc1C(=O)Nc1c(C)nsc1C(=O)NCC1(C)CCC1	38
COc1cc(F)c(O[C@H]2CC[C@@](C)(C(=O)O)CC2)cc1C(=O)Nc1ccsc1C(=O)NCC1(C)CCC1	160
COc1cc(C#N)c(O[C@H]2CC[C@@](C)(C(=O)O)CC2)cc1C(=O)N[C@@H]1[C@H]2CC[C@H](C2)[C@@H]1C(=O)NCC(C)(C)F	770
COc1cc(F)c(O[C@H]2CC[C@@](C)(C(=O)O)CC2)cc1C(=O)N[C@@H]1CCC[C@@H]1C(=O)NCC(C)(C)C(F)(F)F	>1000
COc1cc(F)c(O[C@H]2CC[C@@](C)(C(=O)O)CC2)cc1C(=O)Nc1ccc(Cl)cc1C(=O)NCC1(C)CCC1	0.80
